Patent US20140113958A1, “HCV Combination Therapy” (priority 2011, published 2014)

System: Huh-luc/neo-ET cells
Assay: Cellular toxicity by XTT dye reduction in Huh-luc/neo-ET cells
Conditions: second drug in combination with miravirsen (SPC3649); 95% confidence interval; median or individual values

With `NC(=O)c1ncn([C@@H]2O[C@H](CO)[C@@H](O)[C@H]2O)n1` [Ribavirin, 1-[(2R,3R,4S,5R)-3,4-dihydroxy-5-(hydroxymethyl)oxolan-2-yl]-1H-1,2,4-triazole-3-carboxamide] the “Cytotoxicity, Antagonism vol” value was 0/0 μM^2% and the “Cytotoxicity, Synergy vol” value was 0/0 μM^2%.
